## scFv variants of Ab-14 (light chain) against a SARS-CoV-2 spike peptide

The target is the same throughout: PDVDLGDISGINAS, from the HR2 region of SARS-CoV-2 spike.

Each scFv is VH, a (GGGGS)3 linker, VL, as in the parent Ab-14, and differs from it in the CDRs of the light chain only.
VH: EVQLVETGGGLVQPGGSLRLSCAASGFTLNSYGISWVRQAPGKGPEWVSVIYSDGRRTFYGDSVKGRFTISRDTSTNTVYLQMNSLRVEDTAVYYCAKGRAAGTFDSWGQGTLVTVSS
VL: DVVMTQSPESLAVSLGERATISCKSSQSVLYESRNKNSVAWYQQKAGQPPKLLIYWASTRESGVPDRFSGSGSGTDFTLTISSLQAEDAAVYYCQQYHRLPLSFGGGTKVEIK

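The starting antibody came from a phage panning campaign against this peptide. These sequences belong to a second round, designed from the earlier measurements on random variants of the parent. Several design methods are mixed in this list. In AlphaSeq, yeast of one mating type display the scFv and yeast of the other type display the target. After mating in shaken culture at 30 °C for 16 h, diploids were selected and their barcode pairs sequenced. The ratio of observed to expected reads was calibrated, replicate by replicate, on BCL2-family standards whose Kd was known from biolayer interferometry. Each pool was mated in six replicate cultures.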

The parent's light chain CDRs are KSSQSVLYESRNKNSVA, WASTRES, QQYHRLPLS; each variant's own CDRs replace them letter for letter.
Variants here have at most six changes.
Values are apparent Kd, the geometric mean of the replicates that gave a signal; lower means stronger binding.
"no signal" means that the variant was in the library but no mating with the target was seen in any replicate; the authors take this as a sign of poor binding, and no number exists.
Entries are sorted by rising average, undetected variants last.
Values of this round are not directly comparable with the first-round values of the same sequences.
The authors averaged sequences with at least three values out of six and counted those with two or fewer as poor binders.
Three control strains display no target. For all light chain designs, 4% of the pairings with them gave a signal, with a median of 430 nM and one signal in twenty below 38 nM, so weak values seen in few replicates may be background. The control count says in how many pairings with the empty strains this scFv gave a signal.
Of ten entries with the parent sequence, four were seen in most replicates (averages 2.2 nM to 240 nM), three in one and three in none, so single entries are noisy.

For ASSQGWLYEDRNKNSVA | GASTRED | QQYHRLPLS, the assay gave 290 pM (6 of 6 replicates; controls 1 of 18). The variant KLSMSELYESRNKNSVA | EASTRES | QQYHRLPLS showed 430 pM (6 of 6 replicates; controls 0 of 18). For KQSQEHLYESRNKNSVA | DASTRES | QQYHRLPLS, the assay gave 480 pM (6 of 6 replicates; controls 0 of 18). The variant KLPQSTLYESRNPNSVA | NASTRES | QQYHRLPLS gave 510 pM (6 of 6 replicates; controls 4 of 18). With KLSQSWGYESRNKNSVA | NASTRES | QQYHRLPLS the result was 520 pM (6 of 6 replicates; controls 0 of 18). The variant KLQQSVLYESRNKNSVA | NASTRSS | QQYHRLPLS showed 590 pM (6 of 6 replicates; controls 1 of 18). For KFQQSVLYESRNKNSVA | NGSTRES | QQYHRLPLS, the assay gave 600 pM (6 of 6 replicates; controls 0 of 18).

With KSSQSWLYESRNKNSVA | GASTREH | QQYHRLPLS the result was 610 pM (6 of 6 replicates; controls 1 of 18). With KSSQSMTYESRNKNSVA | QGSTRES | QQYHRLPLS the result was 680 pM (6 of 6 replicates; controls 1 of 18). The variant KSSQVYLYESRNKNSVA | GASTRED | QQYHRLPLS showed 690 pM (6 of 6 replicates; controls 0 of 18). The variant KYSQQMLYESRNKNNVA | EASHRES | QQYHRLPLS showed 810 pM (6 of 6 replicates; controls 2 of 18). With KLMQSALYESRNKNSVA | GASTRES | QQYHRLPLS the result was 820 pM (6 of 6 replicates; controls 1 of 18). For KSSQSVLYDSRNKNSVA | AASTRES | QQYARLPLS, the assay gave 970 pM (6 of 6 replicates; controls 0 of 18). With KHSQSVLNESRNKNSVA | DASTRES | QQYHRLPLS the result was 990 pM (6 of 6 replicates; controls 1 of 18).

The variant KLSQSDLYESRNKNSVA | EASTRES | QAYHRLPLS gave 1.0 nM (6 of 6 replicates; controls 0 of 18). For KFSQEVWYESRNKNSVA | GASQRCS | QQYHRLPLS, the assay gave 1.2 nM (6 of 6 replicates; controls 0 of 18). With KSLQSVLYESRDKNSVA | QASTRED | QQYHRLPLS the result was 1.3 nM (6 of 6 replicates; controls 0 of 18). The variant KSSQSVAFESRNANSVA | DASTRES | QQYHRLPLS gave 1.4 nM (6 of 6 replicates; controls 1 of 18). The variant KSSQSWLYESRNKNAVA | GASTREN | QQYHRLPLS gave 1.5 nM (6 of 6 replicates; controls 1 of 18). The variant KQSQSVLGESRNKNSVA | GASTRVS | QQYHRLPLS showed 2.4 nM (6 of 6 replicates; controls 0 of 18). The variant KSVQSVLYESRNKNSVA | GASTRES | QQYHRLPLS showed 2.6 nM (6 of 6 replicates; controls 0 of 18).

The variant KSSQSVLYESRNKNSVA | EASTRES | QQYYRLPLS showed 3.5 nM (6 of 6 replicates; controls 1 of 18). The variant HSSPSELYESRNGNSVA | NASMRES | QQYHRLPLS gave 3.8 nM (6 of 6 replicates; controls 0 of 18). The variant HSSGSVLYESRNKNSVA | NASTRES | QQYHRLPLQ gave 11 nM (6 of 6 replicates; controls 0 of 18). With RSSQSVLTESANKNSVA | WASTRES | QQYHRLPLS the result was 15 nM (6 of 6 replicates; controls 0 of 18). The variant KLQQLVLYESRNKNSVA | QASTRMS | QAYHRLPLS showed 20 nM (6 of 6 replicates; controls 2 of 18). The variant KLSQSVLYESRNDNSVA | WASTRES | QQYHRLPLS gave 26 nM (6 of 6 replicates; controls 0 of 18). With KHSQSVLYESNNKNSVA | AAGTAES | QQYHRLPLS the result was 41 nM (6 of 6 replicates; controls 0 of 18).

With KSSQSELYESRNKNSVA | YASTRES | QQYHRLPPS the result was 74 nM (1 of 6 replicates; controls 0 of 18). For KSSQSVPYSSRNKNSVA | WASTRES | QSYHRLPLS, the assay gave 1.9 µM (1 of 6 replicates; controls 0 of 18). The variant KSSQSVLFESRNKNSVA | WASTRES | QQYNSLPLS gave no signal (0 of 6 replicates; controls 0 of 18). For KSSQSVLWESRNKNHVA | WASTRES | QQYHRLPLS, the assay gave no signal (0 of 6 replicates; controls 1 of 18).

Extract of 5 entries:

The variant KSSQSELYESRNKNSVA | YASTRES | QQYHRLPPS gave 74 nM (1 of 6 replicates; controls 0 of 18).
The variant KSSQVYLYESRNKNSVA | GASTRED | QQYHRLPLS gave 690 pM (6 of 6 replicates; controls 0 of 18).
The variant KSSQSWLYESRNKNAVA | GASTREN | QQYHRLPLS gave 1.5 nM (6 of 6 replicates; controls 1 of 18).
The variant HSSGSVLYESRNKNSVA | NASTRES | QQYHRLPLQ gave 11 nM (6 of 6 replicates; controls 0 of 18).
The variant KSLQSVLYESRDKNSVA | QASTRED | QQYHRLPLS gave 1.3 nM (6 of 6 replicates; controls 0 of 18).

Values reported by Li et al. 2023, doi:10.1038/s41467-023-39022-2 (FLAb copy).